ChEMBL document CHEMBL5584205 (Bioorg Med Chem Lett, 2024)

Target: T1, Neutrophil elastase (Homo sapiens, UniProt P08246)
T1 sequence (P08246 whole entry): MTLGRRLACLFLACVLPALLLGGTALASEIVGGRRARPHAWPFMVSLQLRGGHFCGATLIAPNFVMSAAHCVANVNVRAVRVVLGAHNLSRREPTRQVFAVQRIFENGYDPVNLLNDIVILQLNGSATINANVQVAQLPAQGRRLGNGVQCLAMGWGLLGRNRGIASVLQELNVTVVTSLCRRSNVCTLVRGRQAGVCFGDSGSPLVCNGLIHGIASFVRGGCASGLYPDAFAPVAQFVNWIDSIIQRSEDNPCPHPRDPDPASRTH
Assay: Inhibition of human neutrophil elastase by enzymatic assay

Question: How did the IC50 turn out when `CC(C)(C)C(=O)Oc1ccc(S(=O)(=O)Nc2ccccc2C(=O)NCC(=O)O)cc1` was run?
Answer: 41 nM
